Reference: patent publication US20030224074A1, “Composition for the protection and regeneration of nerve cells containing the extract of Scutellaria Radix” (EUGENBIO INC., priority 2001, published 2003)
Entries after “also recorded” stand apart in the source; their conditions may differ.

What was measured:
[1] = test system: apoptosis of nerve cells induced by MK-801; conditions: 7-day old white rats, MK-801 0.5 mg/kg intraperitoneally, alone
Excerpt: All groups were intraperitoneally injected.
Experimental animals were sacrificed under anesthetization and their brains were excised. The excised brains were fixed with formalin and tissue sections were obtained.

[2] = rats; cited from earlier work

## MK-801
[1]
  apoptosis of nerve cells in cerebral slices (TUNEL): apoptosis of nerve cells in cerebral slices was identified; also recorded: cells having died by apoptosis
[2]
  elimination half-life: 1.9 h
